The results in this text go back to patent US10953042B2, “Vanadium insulin-mimetics, methods of preparation, and methods for treatment of diabetes” (The University of Trinidad and Tobago, priority 2017, dated 2021).

Like-named read-outs stand apart in the source and are kept apart here.

For series [1], the system named is STZ-induced diabetic rats. The settings on record: 75 mg/kgbw intraperitoneal.
In series [2] the test system is STZ-induced diabetic rats.

Consider “(Diaqua)(2,6-pyridine diacetyl-carboxylato)oxovanadium(IV) [Complex 1]”, for which the values for the creatinine levels result in series [1] and in series [2] (oral (FIG. 21)) were “significantly reducing creatinine levels” and “no significant effect on creatinine levels”, respectively. Besides, the BUN levels was 20.11 mg/dL in series [1] (30-days), 20.03 mg/dL in series [1] (90-days) and “significant effect on decreasing BUN levels” in series [2] (100 mg/kgbw oral (FIG. 20)). The AST levels entry in series [2] (100 mg/kgbw oral (FIG. 22)) is “reducing AST and ALT levels”. For the same substance, the ALT levels result in series [2] (100 mg/kgbw oral (FIG. 23)) was “reducing AST and ALT levels”. The “rate of release from uncoated MCM-41 nanoparticles” value (low pH's (pH 2), 24 hour period) is recorded as “high rate of release”. The “release from uncoated MCM-41 nanoparticles” value (pH 7.4, 24 hour period) is “relatively consistent and steady release”.
